In patent publication US20260240763A1, “Inhalable Serotonin Receptor Agonist Formulations” (Pinata Holdings Inc., priority 2022, published 2026):

Test: Absorption of inhaled composition into the blood stream compared with oral administration
Assay type: in vivo, human
Details: encapsulated dry powder mixed with lactose, administered with an inhaler; subject; paper example in present tense
Description: A subject perceives an aura which indicates of the onset of a migraine. An aura usually occurs within an hour before head pain begins and generally lasts less than 60 minutes. […] The subject is administered a pharmaceutical composition to treat the upcoming migraine headache. The pharmaceutical composition comprises an encapsulated serotonin agonist which has been processed to an encapsulated dry powder using the methods described herein (e.g., spay drying). The dry powder is mixed with a lactose powder. The serotonin agonist is packaged in a capsule and is administered with an inhaler. The dosing regimen comprises an effective amount of a serotonin agonist to treat the allergic reaction.
A subject has migraine headaches. The subject is administered a pharmaceutical composition to treat the migraine headaches. […]
A subject is diagnosed with obesity. […] Effective treatment is determined by measuring the subject's weight prior to the first administration of the treatment as compared to the subject's weight after administration of the treatment for a specified time (e.g., one month). […]
A subject is diagnosed with an opioid addiction. […] The dosing regimen comprises an effective amount ibogaine to treat the opioid addiction as measured by the subject's self-assessment of opioid craving. […]

## ibogaine
  absorption reaches the blood stream faster than a comparable pharmaceutical composition administered orally: at least 5 ×
